Reference: ChEMBL document CHEMBL3392967, “Phosphatidylinositol 3-Kinase (PI3K) and phosphatidylinositol 3-kinase-related kinase (PIKK) inhibitors: importance of the morpholine ring” (J Med Chem, 2015)

By UniProt entry, the sequences of proteins in these tests, tags left out. Where a name states a change or a piece, a line headed by the entry shows the natural chain unless it says otherwise.
UniProt P42338: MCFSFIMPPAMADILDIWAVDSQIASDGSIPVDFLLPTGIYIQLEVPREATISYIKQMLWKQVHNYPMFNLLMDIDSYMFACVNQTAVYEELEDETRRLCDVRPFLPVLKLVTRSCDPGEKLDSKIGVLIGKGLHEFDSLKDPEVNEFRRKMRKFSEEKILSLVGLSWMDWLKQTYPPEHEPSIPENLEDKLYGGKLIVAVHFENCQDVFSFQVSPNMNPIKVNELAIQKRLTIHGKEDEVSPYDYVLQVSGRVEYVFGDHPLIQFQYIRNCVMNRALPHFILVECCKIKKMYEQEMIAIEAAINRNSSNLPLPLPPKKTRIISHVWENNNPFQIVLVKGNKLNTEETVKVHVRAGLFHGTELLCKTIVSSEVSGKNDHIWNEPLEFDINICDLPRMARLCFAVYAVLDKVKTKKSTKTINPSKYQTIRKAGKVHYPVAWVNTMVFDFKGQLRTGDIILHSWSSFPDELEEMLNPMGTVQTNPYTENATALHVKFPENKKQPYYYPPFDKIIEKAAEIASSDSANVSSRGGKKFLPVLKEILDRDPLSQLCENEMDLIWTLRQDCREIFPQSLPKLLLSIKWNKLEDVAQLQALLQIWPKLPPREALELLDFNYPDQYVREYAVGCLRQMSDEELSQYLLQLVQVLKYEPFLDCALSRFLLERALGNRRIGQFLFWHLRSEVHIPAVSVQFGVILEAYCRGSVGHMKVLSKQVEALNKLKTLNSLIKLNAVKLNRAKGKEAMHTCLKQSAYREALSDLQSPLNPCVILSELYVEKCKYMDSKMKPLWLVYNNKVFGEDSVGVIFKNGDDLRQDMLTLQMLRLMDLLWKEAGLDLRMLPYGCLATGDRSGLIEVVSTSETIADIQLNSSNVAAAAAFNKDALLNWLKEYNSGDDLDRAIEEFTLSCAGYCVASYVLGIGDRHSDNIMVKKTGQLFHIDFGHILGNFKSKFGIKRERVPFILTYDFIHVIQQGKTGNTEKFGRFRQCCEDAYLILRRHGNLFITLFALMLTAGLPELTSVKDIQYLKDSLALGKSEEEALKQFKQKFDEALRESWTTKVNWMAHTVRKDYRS

Molecular target: Phosphatidylinositol 4,5-bisphosphate 3-kinase catalytic subunit beta isoform (Homo sapiens, UniProt P42338)

Row | IC50 | SMILES
1 | 2 µM | Cc1cc(C(C)Nc2ccccc2)c2nc(N3CCOCC3)cc(=O)n2c1 (configuration not stated)
2 | 16 µM | O=c1cc(N2CCOCC2)oc2c(-c3ccccc3)cccc12 [LY-294002]
